In US12491170B2, “Stable treprostinil prodrugs” (United Therapeutics Corporation, priority 2020, dated 2025):

Assays:
[1] = Experimental: Mixed-gender human liver microsomes, male Sprague-Dawley rat liver microsomes, and male Beagle dog liver microsomes were purchased from XenoTech. The reaction mixture, minus NADPH, was prepared as described below. […] An aliquot of the reaction mixture (without cofactor) was equilibrated in a shaking water bath at 37° C. for 5 minutes. The reaction was initiated by the addition of cofactor, and the mixture was incubated in a shaking water bath at 37° C. Aliquots (200 μL) were withdrawn at 0, 10, 20, 30, and 60 minutes. Test article samples were immediately combined with 400 μL of ice-cold acetonitrile (ACN) to terminate the reaction. […] The samples were then mixed and centrifuged to precipitate proteins. Aliquots of the supernatant were removed, diluted 1:1 into distilled water containing internal standard, and analyzed by LC-MS/MS against calibration standards prepared in a matched matrix. All samples were analyzed for the dosed prodrugs as well as the drug, treprostinil. The test article concentration was compared to the concentration at time 0 to determine the percent of test article remaining at each time point. Half-lives and clearance were calculated using GraphPad software, fitting to a single-phase exponential decay equation.
• Liver Microsomes 0.5 mg/mL • NADPH (cofactor) 1 mM • Potassium Phosphate, pH 7.4 100 mM • Magnesium Chloride 5 mM • Test Article 1 μM

[2] = remark: listed apart in the source
Experimental: The pool of skin homogenate was prepared by combining equal volumes of three lots that were tested in the initial skin homogenate lot assessment experiments.
A stock solution of calcein-AM was first prepared at 5 mM in DMSO, followed by a serial dilution into methanol at a concentration of 100 μM. 495 μL of skin homogenate was thawed and warmed to 37° C. A 5 μL aliquot of the 100 μM calcein-AM solution was spiked into the skin homogenate, for a final calcein-AM dosing concentration of 1 μM. After briefly mixing, 150 μL aliquots were removed in triplicate and transferred to 96-well Falcon plates. The plates were placed onto a Thermomixer and maintained at 37° C., with gentle shaking for the duration of the experiment. At each time point (0, 15, 30, 60, and 120 minutes), the plate was removed from the Thermomixer and transferred to a FLUOstar® plate reader, and the formation of calcein (Sigma) was monitored by fluorescence (490/515 nm). Calibration standards of calcein were prepared in distilled water by serial dilutions of a calcein DMSO stock at final concentrations ranging from 1 μM to 1 nM. All samples and standards were read concurrently (Table 13).
For each of the test articles, 495 μL of skin homogenate was added to triplicate centrifuge tubes. […] The disappearance of each individual test article was monitored, as well as the formation of treprostinil (Table 14 and Table 15).

[3] = remark: listed apart in the source
Experimental: Mixed-gender human cryopreserved hepatocytes, male Sprague-Dawley rat cryopreserved hepatocytes, and male Beagle dog cryopreserved hepatocytes were purchased from XenoTech. The hepatocytes were thawed and prepared according to the vendor's instructions, pooled into Krebs Henseleit buffer (KHB, pH 7.4), and kept on ice prior to the experiments. […] The final DMSO content in the incubation mixture was ≤0.1%. […] Aliquots of the test article were withdrawn (n=1) at 0, 15, 30, 60, and 120 minutes. […] Aliquots of 7-HC were withdrawn (n=1) at 0 and 15 minutes. The reaction was immediately terminated by adding two volumes of ice-cold acetonitrile (ACN) to the test article samples and three volumes of ACN containing internal standard to the positive control samples. The samples were then mixed and centrifuged to precipitate proteins. An aliquot of the supernatant was then diluted with water and analyzed by LC-MS/MS against calibration standards prepared in a matched matrix. […] All test article samples were analyzed for the dosed prodrugs as well as the drug, treprostinil. The test article concentration was compared to the concentration at time 0 to determine the percent of test article remaining at each time point. Half-lives and clearance values were calculated using GraphPad software, fitting to a single-phase exponential decay equation.

[4] = Plasma stability, human plasma; assay type: in vitro ADME; conditions: 1 μM, 37° C.
Experimental: (§1) Studies were carried out in mixed-gender human plasma male Sprague-Dawley rat plasma, and male Beagle dog plasma. All plasma was obtained from Bioreclamation and collected on K2EDTA. Plasma was adjusted to pH 7.4 prior to initiating the experiments. DMSO stocks were first prepared for the test articles. […] The vials were kept in a benchtop Thermomixer® for the duration of the experiment. […] Samples were stored at 4° C. until the end of the experiment. After the final time point was sampled, the plate was mixed and then centrifuged at 3000 rpm for 10 minutes.

[5] = Plasma stability, rat plasma; assay type: in vitro ADME, Sprague-Dawley rat; conditions: 1 μM, 37° C.
Experimental: as §1

[6] = Plasma stability, dog plasma; assay type: in vitro ADME, Beagle dog; conditions: 1 μM, 37° C.
Experimental: as §1

[7] = Stability in simulated intestinal fluid; assay type: in vitro ADME; conditions: SIF pH 6.8 with pancreatin, 1 μM, 37° C.
Experimental: Studies were carried out in simulated intestinal fluid (SIF). SIF was prepared by dissolving 6.8 g of KH2PO4 in 250 mL of water, mixing, and then adding 77 mL of 0.2 N NaOH and […] of water. […] DMSO stocks were first prepared for the test articles. […] The vials were kept in a benchtop Thermomixer® for the duration of the experiment. A separate tube was dosed for each time point in each matrix. […] Samples were mixed and then immediately stored at 4° C. until the end of the experiment. After the final time point was sampled, the plate was mixed and then centrifuged at 3000 rpm for 10 minutes.

Question: Which “Trep Concentration 30 min” value [1] does the source give for CCCCCC(O)CCC1C(OC)CC2Cc3c(cccc3OCC(=O)O)CC21 (stereo not shown) [LIII] here?
Answer: 0.0236 µM

Question: And the “Trep Concentration 120 min” value [2]?
Answer: 0.0171 µM

Question: Which “Trep Concentration 0 min” value [1] does the source give for CCCCCC(CCC1C(O)CC2Cc3c(cccc3OCC(=O)O)CC21)OC(=O)c1ccc(O)cc1 (stereo not shown) [LXVIII] here?
Answer: 0.0171 µM

Question: And the “Trep Concentration (μM) 60 min” value [3]?
Answer: 0.195 µM

Question: Which “Trep Concentration 20 min” value [1] does the source give for CCCCCC(CCC1C(O)CC2Cc3c(cccc3OCC(=O)O)CC21)OC(=O)c1ccc(O)c(O)c1 (stereo not shown) [LXVI] here?
Answer: 0.0171 µM

Question: With CCCCCC(CCC1C(O)CC2Cc3c(cccc3OCC(=O)O)CC21)OC(=O)c1cccc(O)c1 (stereo not shown) [LX] as the compound, how does the “Trep Concentration (μM) 120 min” value [3] read?
Answer: 0.0117 µM

Question: With CCCCC[C@@H](CC[C@@H]1[C@H]2Cc3cccc(OCC(=O)O)c3C[C@H]2C[C@H]1O)OC(=O)[C@@H](N)C(C)C [XXIX] as the compound, how does the “Trep Concentration 10 min” value [1] read?
Answer: 0.0117 µM

Question: For CCCCCC(CCC1C(O)CC2Cc3c(cccc3OCC(=O)O)CC21)OC(=O)C(C)N (stereo not shown) [XXXI], which “Trep Concentration 30 min” value [2] is on record?
Answer: 0.112 µM

Question: Which “Trep Concentration 10 min” value [1] does the source give for CCCCCC(CCC1C(O)CC2Cc3c(cccc3OCC(=O)O)CC21)OC(=O)CCN (stereo not shown) [XXXVII] here?
Answer: 0.0171 µM

Question: What does the source list for treprostinil diacetate [Prodrug LXXII]?
Answer: Percent Remaining 30 min [4]: 106%; Percent Remaining 30 min [5]: 107%; Percent Remaining 30 min [6]: 102%; Percent Remaining 30 min [7]: 107%

Read-outs that look alike come from different tables or passages of the source.
